Consider 1 substance from patent US10717966B2, “Stem cell-derived hepatocytes in co-culture and uses thereof” (Colorado State University Research Foundation, priority 2014, dated 2020).

The data set has as its system CYP1A2. Put plainly: CYP1A2 induction in iMPCCs (7-ethoxyresorufin O-dealkylation). It counts as cell-based, human.

As to β-naphthoflavone, the “CYP1A2 fold induction in iMPCCs as % of values in PHH-MPCCs” value was ~70%.
